Experimental findings from patent US20240075157A1 are described below.

Protein sequences, listed by entry. Tags and fused reporters are not part of them. Residues count along the entry.
UniProt P12314, 16-288 limits assumed: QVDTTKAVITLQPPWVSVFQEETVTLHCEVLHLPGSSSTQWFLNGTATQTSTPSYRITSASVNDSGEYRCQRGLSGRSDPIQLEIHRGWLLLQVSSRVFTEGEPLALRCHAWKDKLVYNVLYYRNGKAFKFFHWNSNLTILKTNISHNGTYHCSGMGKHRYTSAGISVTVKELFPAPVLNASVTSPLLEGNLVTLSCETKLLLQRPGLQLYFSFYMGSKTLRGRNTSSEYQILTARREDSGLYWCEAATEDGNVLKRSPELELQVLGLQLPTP

The target in this assay is human FcγR1 (hFcγR1) (human) (UniProt P12314). The assay can be described thus: BLI, Hu Fc1.
“Ab5 (anti-CD45 antibody) D265C.N297A.H435A variant”: the normalized binding response was 1 % of WT.

Turning to Ab5 (anti-CD45 antibody) LALA variant, the normalized binding response is 21 % of WT. As for Ab5 LALA.P329G (antibody), the normalized binding response was 1 % of WT.

With Ab5 LALA.P331G (antibody), the normalized binding response was 4 % of WT.

For Ab5 N297A.I253A.H310A.H435A (antibody), the normalized binding response is 25 % of WT.
